These results are taken from patent US11779597B2, “Method of treating Parkinson's and other neurodegenerative diseases” (Vector Vitale IP LLC, priority 2019, dated 2023).

Common to all, as to type: in vivo
In one test the test system is microglia. In words: Functional profile of microglia in 6-OHDA rat models after prophylactic administration. To be noted: prophylactic i.p. As for the experimental part:
(§1) Methods: Adult mature rodents were used in the study. […] Before prophylactic administration of the experimental drugs, the animals underwent an open field test to assay their general locomotor activity levels and anxiety. The prophylactic course consisted of 10 daily intraperitoneal injections of the drugs (in the case of combination drug, its components were administered at an interval of 2 hours). After the end of prophylactic course, Parkinson's disease was modelled in the animals. […] Ten days after the last (second) apomorphine test, the animals' behavioral responses were assessed in the open field test followed by euthanasia and analysis of functional (metabolic and phenotypic) profiles of phagocytes of different localization. Thus, the study of the functional profile of phagocytes in rat models of Parkinson's disease was performed on day 28 after the end of the course of prophylactic treatment with the experimental drugs. […] Functional characteristics of circulating phagocytes (monocytes and neutrophils) were evaluated in whole blood taken into a tube containing EDTA used as an anticoagulant. Mononuclear and polymorphonuclear phagocytes were analyzed on a flow cytofluorimeter using a gating method. […] The hemogram parameters were analyzed on the hematological analyzer Particle counter model PCE 210 (ERMA, Japan) adapted for the study of blood cells of rats and mice.

Test [1] concerns dopaminergic neurons in the black substance in rat models of Parkinson's disease (6-OHDA). Description: Apomorphine test / destruction of dopaminergic neurons after prophylactic administration. To be noted: 6-OHDA rat models. As for the experimental part:
as §1

The test system of test [2] is circulating monocytes and granulocytes. In words: Functional and phenotypic properties of circulating phagocytes in LPS rat models. To be noted: animal models of PD. As for the experimental part:
(§2) On the 1st day of the experiment, rats were either operated to model hemi-parkinsonism or sham operated. From the 9th to the 18th day of the experiment, the animals were injected either deuterium-depleted water or the test substance, according to their allocation into groups, for 10 days. On the 8th day of the experiment (before initiation of treatment—apomorphine test I) and on the 21st day of the experiment (after the end of administering the test substance —apomorphine test II) the animals underwent an apomorphine test to analyze the development of hemi-parkinsonism which correlates with the number of destroyed dopaminergic neurons. In addition, a follow-up analysis of fecal water content was carried out, i.e., before the start of treatment on the 8th day after the operation, as well as on the 21st (after the end of treatment) and the 28th day (before autopsy). […]
To assess the anti-inflammatory and immunomodulating effects of the test substance, microglia and peritoneal macrophages were isolated. Phenotypic and functional features of peripheral blood phagocytes were evaluated without their fractioning (using whole blood). […]
Phagocytic activity of microglia, peritoneal macrophages and peripheral blood phagocytes was analyzed on a flow cytometer using FITC-labeled S. aureus Wood 46 cells as an object of phagocytosis. […]

A further test concerns circulating leukocytes. In words: Blood count values in LPS rat models. As for the experimental part:
as §2, with “autopsy). On the 24th day of the experiment, behavioral tests were carried out in all groups. All animals were weighed before autopsy.” for “autopsy).”
The blood count values were analyzed at the completion of the experiment (day 28). The absolute number of leukocytes, as well as the absolute and relative numbers of lymphocytes, monocytes and neutrophilic granulocytes were calculated.

In test [3] the test system is TH-positive neurons in the midbrain. Description: Immunohistochemical identification of TH-positive neurons. The settings on record: LPS rat models, versus LPS models administered water.

For the substance “^64Zn-enriched zinc aspartate [^64Zne-asp]”, in the test with microglia, the “relative number of CD14+ cells in microglia” value is listed as “decrease” and the “relative number of CD206+ cells in microglia” value is recorded as “significant increase”. Besides, in test [1], the “rate of rotational movements in the control relative to treated animals with 100% destruction” value stood at 2.2 times. Also, in test [2], the “relative number of circulating monocytes (phagocytic cells)” value is “slight decrease” and the “relative number of phagocytic granulocytes (granulocyte index)” value is on record as “did not produce any effect”. Also, in the test with circulating leukocytes, the neutrophil-to-lymphocyte ratio result is recorded as “normalization” and the “peripheral inflammation (relative number of leukocytes)” value was “reduced”. For the same substance, the “number of TH-positive neurons in the midbrain” value in test [3] (listed as 64Zn-asp) was “significant increase”. In addition, the “number of TH-positive neurons in the midbrain” value in test [3] (listed as zinc preparation) is given as “statistically significant increase”.
